Reference: patent publication US10947271B2, “Antibacterial agents” (THE UNIVERSITY OF QUEENSLAND, priority 2014, dated 2021)

Test: Stability of compounds in human plasma
Details: 50% human plasma/PBS pH 7.4, 37° C.
Description: Briefly test compounds (20 μM) were prepared from a 1 mM stock solution. The human plasma sample (200 μl) was diluted with 160 μl phosphate-buffer saline (PBS, pH 7.4) to a concentration of 50% v/v before use. Solutions were then vortexed and placed on a 37° C. shaker and shaken gently for 10 minutes. 40 μl of the test compounds were then added to the plasma sample and vortexed. For the reaction time t=0 hour, 50 μl of sample was immediately transferred into an eppendorf tube and quenched with 150 μl cold acetonitrile. The remaining plasma solution was incubated and shaken at 37° C. Other samples were collected at time points of 0, 1, 3, 6 and 24 hours whereby 50 μl aliquots were removed and quenched with 150 μl cold acetonitrile. All samples were placed in a 4° C. fridge for 10 minutes then centrifuged at 3000 rpm for 15 minutes. The supernatant (100 μl) was transferred to a glass vial insert for LCMS analysis. The percentage of test compounds remaining at the individual time points relative to sample at time point 0 hour were reported.
Plasma: Human Plasma (Pooled Normal Human Plasma Heparin Anticoagulant 50 mL (IPLA-2 N-04 lot IR09-1001, originally from Innovative Research and imported by BioCore).
All compounds in 100% water (40 μL in 400 μL assay volume equivalent […])
Compounds: 40 μL of the vancomycin derivative solution was added to 160 μL of PBS (pH 7.4) respectively in an Eppendorf tube. 600 μL of cold acetonitrile was added, the tube vortexed and transferred to a glass vial for LC-MS analysis.
Eucatropine: 200 μL of plasma and 190 μL of buffer were vortexed, shaken at 37° C. for 10 minutes. 10 μL of eucatropine solution was then added and the tube vortexed. A 50 μL aliquot was immediately transferred to an Eppendorf tube, 150 μL of cold acetonitrile added and the tube transferred to a 4° C. fridge for 10 minutes. The remaining plasma solution was then transferred to the incubator and shaken at 37° C. The tube was retrieved from the fridge, centrifuged at 3000 rpm for 15 min and 100 μL of supernatant transferred to a glass vial insert for LC-MS analysis. 50 μL aliquots were processed as above at 1, […], 3, 6 and 24 hours and 5 μL was injected into triple quad MS system for analysis. Vancomycin derivatives: 200 μL of plasma and 160 μL of buffer were vortexed and shaken at 37° C. for 10 minutes. 40 μL of compound was then added and the sample was processed as above.

For “nC13CO-GSKKKC(SEtNH-Vanc)-OH [MCC_000199, reference compound]”, the “% compound remaining after incubation in 50% human plasma” value (“% compound remaining after incubation” below) (0 h (reference time point)) was 100%, the “% compound remaining after incubation” value (1 h) was 119% and the “% compound remaining after incubation” value (6 h) was 82%. The “% compound remaining after incubation” value (24 h) was 18%.
